Earlier results on one compound are cited in patent US7175829B2, “Contrast-enhanced diagnostic imaging method for monitoring interventional therapies” (Epix Pharmaceuticals, Inc., priority 1997, dated 2007).

In this series the test system is alpha 1-acid glycoprotein (AAG). To be noted: binding to alpha 1-acid glycoprotein; cited from earlier work.

The structures appear in SMILES notation.

In the case of `CN(C)CCCN1c2ccccc2CCc2ccccc21` [imipramine], the Ka is listed as 2.4×10^5.
